Results taken from US20180008569A1, “PROSTAGLANDIN TRANSPORTER INHIBITORS FOR INHIBITING OVULATION” (TEL HASHOMER MEDICAL RESEARCH INFRASTRUCTURE AND SERVICES …, priority 2015, published 2018).

Tests used:
PGT [1] = target: T1, PGT (Homo sapiens, UniProt Q92959); assay: PGE2 concentration in media of MGCs by enzyme immunoassay (EIA); format: cell-based; settings: hCG 1U/ml 24 hours, FSH-pretreated MGCs
Description: The concentration of PGE2 in the media was then measured by an enzyme immunoassay (EIA).

PGT [2] = target: T1, PGT; assay: [3H]PGE2 influx into cultured MGCs; format: cell-based; settings: hCG 1U/ml 24 hours, then 1.5 nM [3H]PGE2 for 60 minutes; after first 20 minutes
Description: To confirm the role of PGT in PGE2 uptake, complementary influx experiments were also carried out. Cultured FSH-pretreated MGCs (48 hours) were initially treated with or without hCG (1U/ml) for 24 hours (to induce PGT expression) and then re-incubated with 1.5 nM of [^3H]PGE2 for 60 minutes. Intracellular [^3H]PGE2 levels were measured at intervals over the 60 minutes incubation period.

[3] = system: whole ovarian PGT transcripts; assay: Whole ovarian PGT transcripts in PMSG-primed/hCG-triggered immature mouse superovulation model; format: in vivo
Description: FIG. 5A presents the regulation ovarian PGT expression in vivo. Pregnant mare serum gonadotropin (PMSG)-primed/hCG-triggered was applied to immature mouse superovulation model for 48 hours (FIG. 5A, t=0) which augmented the level of PGT in the ovaries, relative to control (FIG. 5A, saline) by 2.3 folds (p<0.02). Administration of hCG further augmented the whole ovarian PGT transcripts to a peak noted 9 hours later (5.8 fold, p<0.003).

[4] = Serum progesterone levels (corpus luteum function) in PMSG-primed/hCG-triggered mice; format: in vivo; settings: 24 hours post-hCG injection
Description: In order to assess corpus luteum function, serum progesterone levels were measured in PMSG-primed/hCG-triggered mice in the absence or presence of DIDS.

PGT transcripts in MGCs = assay: PGT transcripts (qPCR) in cultured FSH-pretreated human mural granulosa cells; settings: FSH-pretreated MGCs (48 hours), 24 hours

**Q.** For human chorionic gonadotropin [hCG], which “increase in the concentration of PGE2 in conditioned media” value (PGT [1]) is on record?
**A.** Its value is 2 fold.

**Q.** And the “intracellular [3H]PGE2 uptake” value (PGT [2])?
**A.** The value was “continued [^3H]PGE2 influx was noted only in hCG-treated MGCs”.

**Q.** What about the “whole ovarian PGT transcripts, peak” value ([3]; 9 hours after hCG administration) of the same substance?
**A.** The value was 5.8 fold.

**Q.** And the “whole ovarian PGT transcripts” value ([3]; 12 hours after hCG administration)?
**A.** Its value is “back at baseline levels”.

**Q.** What about the serum progesterone levels [4] of the same substance?
**A.** The serum progesterone levels was “significantly increased”.

**Q.** What about the “induction of PGT transcripts” value (PGT transcripts in MGCs; hCG 1 U/ml) of the same substance?
**A.** The value was 34 fold.

**Q.** What about the “induction of PGT transcripts” value (PGT transcripts in MGCs; hCG 10 U/ml) of the same substance?
**A.** The value was 46 fold.
